# Results from patent US20060073183A1, “Therapeutic composition and a method of coating implantable medical devices” (Advanced Cardiovascular Systems, Inc., priority 2002, published 2006).
# Test: Dissolution in formamide with heating
# Format: physicochemical
# Details: about 0.1 gram in 1 milliliter formamide, heated at 50° C, a few minutes
# Description: Formamide (H—CO—NH2) can be used as a solubilizing agent for heparin, heparin derivatives, or PArg. Heparin or a heparin derivative or PArg can be dissolved in formamide. At least 8% by mass of a solution of heparin or a derivative thereof or PArg in formamide can be prepared.
# About 1 milliliter (1.133 gram) of formamide was added to 0.1 gram of sodium heparin (NaHep) obtained from Aldrich Chemical Co. of Milwaukee, Wis. The suspension was heated at a temperature about 70° C. After about 5 minutes of heating, sodium heparin was fully dissolved in formamide to form about 8.1 mass % NaHep solution. About 0.15 gram of EVAL was dissolved in about 0.85 gram of dimethylacetamide (DMAC) to form 15% (mass) solution of EVAL. About 1 gram of the 15% EVAL solution was further dissolved in a mixture of about 2 grams of DMAC and about 1 gram of methyl alcohol. This final EVAL solution was added to the NaHep-formamide solution prepared above. The two solutions were thoroughly mixed to form a clear heparin-polymer (NaHep-EVAL) solution.
# About 1 milliliter (1.133 gram) of formamide was added to about 0.1 gram of poly-L-arginine sulfate. The suspension was heated at a temperature of 50° C. After a few minutes of heating, PArg was fully dissolved in formamide to form about 8.1 mass % PArg solution. About 0.15 gram of EVAL was dissolved in about 0.85 gram of DMAC to form 15% (mass) solution of EVAL. […]
substance,measurement,value
poly-L-arginine sulfate,concentration of solution with substance fully dissolved in formamide,about 8.1 mass %
